# Measurements published in patent US20100291010A1, “NOVEL ESTERS AND COMPOSITIONS AND USES THEREOF” (INNOSPEC LIMITED, priority 2007, published 2010).
# Assay: Sunscreen solubilities in esters (25° C.)
# From the text: These two sunscreens are difficult to dissolve and keep in solution for use in sunscreen formulations for optimal SPF (Sun-Protection Factors). Higher solvency for a sunscreen ingredient is described as it allows higher concentrations of the sunscreen active ingredient in a formulation. […] The liquid organic sunscreens that are commonly used as octylsalicylate (OS) and octyl-methoxycinnamate (OMC).
substance,measurement,setting,value
butyl-methoxy dibenzoyl methane [Parsol 1789],Solubility in Additive A (%),solvent Additive A,23%
same,Solubility in Finester LP (%),solvent Finester LP,6%
same,Solubility in Finsolv TN (%),solvent Finsolv TN,13%
